These results are taken from patent publication US20240384323.

In the data set the test system is T1, IQ Probe (internally quenched linear polypeptide containing the S01 substrate).
T1 sequence: LSGRSDNH

With “Recombinant human uPA (urokinase-type plasminogen activator; R&D Systems 1310-SE)”, the “kcat/KM of the S01 substrate, IQ Probe relative to C225-S01” value was 4.6× and 3.5× times, respectively.
